Reference: PMC6728138, “Quantitative mapping of protein-peptide affinity landscapes using spectrally encoded beads” (eLife, 2019)

Tested on: CN N330A/I1331A/R332A mutant (CN NIR)
Experiment: MRBLE-pep binding to CN NIR mutant defective in PxIxIT binding (250 nM)
Parameters: species or system human
Source text: Using this new assay, we experimentally mapped portions of the CN-PxIxIT binding energy landscape by measuring CN binding to two MRBLE-pep libraries for each of the PVIVIT, PKIVIT, NFATc2, and AKAP79 sequences containing systematic mutations in either the ‘core’ (positions 1–6) or ‘flanking’ PxIxIT residues (positions −1 and 7–9) (368 peptides total) (Figure 3A, Figure 3—figure supplement 1, Figure 3—figure supplement 2, Figure 3—figure supplement 3, Figure 3—figure supplement 4, Figure 3—figure supplement 5, Figure 3—figure supplement 6, Figure 3—figure supplement 7, Figure 3—figure supplement 8, Figure 3—source data 1, Figure 3—source data 2, Figure 3—source data 3, Figure 3—source data 4, Figure 3—source data 5, Figure 3—source data 6, Figure 3—source data 7, Figure 3—source data 8). […] To ensure that measured binding resulted from a true CN-PxIxIT interaction and not nonspecific binding, we repeated all experiments at a single, high concentration (250 nM) using a CN N330A/I1331A/R332A mutant defective in PxIxIT binding (CN NIR) ([Li et al., 2004]) and labeled antibody alone (Figure 3—figure supplement 9, Figure 3—figure supplement 10, Figure 3—figure supplement 11, Figure 3—figure supplement 12; Figure 3—source data 9, Figure 3—source data 10). […]

- binding by the CN NIR mutant in words: strongly bound
Substance: PRIRIT
